Key:
Assay type in all cases: functional, cell-based
RAW264.7 [1] = test: Anti-inflammatory activity in mouse RAW264.7 cells assessed as inhibition of LPS-induced IL-6 level preincubated for 30 mins followed by LPS addition measured after 24 hrs by ELISA; conditions: time 24.5 hrs
RAW264.7 [2] = test: Anti-inflammatory activity in mouse RAW264.7 cells assessed as inhibition of LPS-induced TNF-alpha level preincubated for 30 mins followed by LPS addition measured after 24 hrs by ELISA; conditions: dose 0.25-2 µM, time 24.5 hrs
THP-1 [3] = test: Anti-inflammatory activity in human THP-1 cells assessed as inhibition of LPS-induced IL-6 level preincubated for 30 mins followed by LPS addition measured after 24 hrs by ELISA; conditions: dose 0.625-5 µM, time 24.5 hrs
THP-1 [4] = test: Anti-inflammatory activity in human THP-1 cells assessed as inhibition of LPS-induced TNF-alpha level preincubated for 30 mins followed by LPS addition measured after 24 hrs by ELISA; conditions: dose 1.25-10 µM, time 24.5 hrs
J774.A1 [5] = test: Anti-inflammatory activity in mouse J774.A1 cells assessed as inhibition of LPS-induced IL-6 level preincubated for 30 mins followed by LPS addition measured after 24 hrs by ELISA; conditions: dose 0.625-5 µM, time 24.5 hrs
J774.A1 [6] = test: Anti-inflammatory activity in mouse J774.A1 cells assessed as inhibition of LPS-induced TNF-alpha level preincubated for 30 mins followed by LPS addition measured after 24 hrs by ELISA; conditions: dose 0.625-5 µM, time 24.5 hrs

COc1cc2c(O[C@H]3CC[C@@H](N)CC3)ncnc2cc1OCc1ccc([N+](=O)[O-])cc1
inhibition (RAW264.7 [1]): Dose-dependent-effect

COc1cc2c(O[C@H]3CC[C@@H](N)CC3)ncnc2cc1OCc1ccc(C)cc1
inhibition (RAW264.7 [1]): Dose-dependent-effect

COc1cc2c(O[C@H]3CC[C@@H](NCCN4CCNCC4)CC3)ncnc2cc1OCc1ccccc1
inhibition (RAW264.7 [1]): Dose-dependent-effect

COc1cc2c(O[C@H]3CC[C@@H](N)CC3)ncnc2cc1OCc1cccc(Br)c1
inhibition (RAW264.7 [2]): Dose-dependent-effect
inhibition (THP-1 [3]): Dose-dependent-effect
inhibition (THP-1 [4]): Dose-dependent-effect
inhibition (J774.A1 [5]): Dose-dependent-effect
inhibition (J774.A1 [6]): Dose-dependent-effect
inhibition (RAW264.7 [1]): Dose-dependent-effect

COc1cc2c(O[C@H]3CC[C@@H](N)CC3)ncnc2cc1OCc1cccc(C)c1
inhibition (RAW264.7 [1]): Dose-dependent-effect
